{
  "source": "PubChem BioAssay AID492999",
  "about": "(Johns Hopkins Ion Channel Center, 2010)",
  "note": "The list shows a part of the results, in another mix than the full data. Active and inactive are the calls of the source.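 How the source made its calls: active means duplicate-averaged calcium response above the buffer-only control mean plus 5 SD of those controls; inactive means the rest.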",
  "data": [
    {"assay": "enhanced carbachol calcium response, M3R/RGS4 cells, RGS4 inhibitor project, cell-based, validation screen, HEK293 M3R/RGS4, calcium flux (AID 492999);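 further: integrated fluorescence ratio F max minus min over baseline F0; higher response in RGS4-induced cells means RGS4 inhibition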", "conditions": "HEK293 M3R/RGS4, carbachol calcium Fluo-4 fluorescence; at 10 µM; stronger effect = higher value; 0 = buffer wells, 100 = carbachol control; carbachol added at its EC20", "values": [
      {"smiles": "CCc1nc2c(n1)c1c(non1O)c1c2no[n+]1[O-]", "calcium response": "active: 18%"}
    ]}
  ]
}
